The results in this text go back to US9624228B2, “Inhibitors of ERK and methods of use” (KURA ONCOLOGY, INC., priority 2013, dated 2017).

The chains behind the UniProt entries cited, without tags or fusion partners.
UniProt P28482, whole entry: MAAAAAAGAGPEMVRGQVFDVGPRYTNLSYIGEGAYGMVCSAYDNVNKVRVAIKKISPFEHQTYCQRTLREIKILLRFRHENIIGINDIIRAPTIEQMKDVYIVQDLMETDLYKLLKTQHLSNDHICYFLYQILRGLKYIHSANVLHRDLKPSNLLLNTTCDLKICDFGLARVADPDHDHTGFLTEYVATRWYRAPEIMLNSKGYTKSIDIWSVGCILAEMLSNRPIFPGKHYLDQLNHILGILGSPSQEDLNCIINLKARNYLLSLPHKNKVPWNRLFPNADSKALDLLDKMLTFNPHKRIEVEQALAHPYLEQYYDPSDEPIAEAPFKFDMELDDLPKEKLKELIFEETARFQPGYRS

pIC50: −log10 of the molar value. Where only a bound is given, the exact number is not on record here.

This experiment addresses ERK2 enzyme (Homo sapiens (Human), UniProt P28482). The experiment is described as follows: Inhibition assay of ERK (Z'-LYTE kinase assay, Ser/Thr 3 peptide substrate). The note with it: read-out: Erk2 IC50, In vitro, ERK2 enzyme 0.47 ng/μL, 100 μM ATP.

Take `CC(c1ccccc1)c1cc2cc3c(-c4ccc(N5CCN(C)CC5)nc4)n[nH]c3cc2[nH]c1=O` (stereo not shown): the pIC50 is over 7.30.
